Measured values as given in article PMC9140068, “Generation of HepG2 Cells with High Expression of Multiple Drug-Metabolizing Enzymes for Drug Discovery Research Using a PITCh System” (Cells, 2022).

Chains of the proteins cited; added tags and fusions are not shown.
UniProt P08684, whole entry: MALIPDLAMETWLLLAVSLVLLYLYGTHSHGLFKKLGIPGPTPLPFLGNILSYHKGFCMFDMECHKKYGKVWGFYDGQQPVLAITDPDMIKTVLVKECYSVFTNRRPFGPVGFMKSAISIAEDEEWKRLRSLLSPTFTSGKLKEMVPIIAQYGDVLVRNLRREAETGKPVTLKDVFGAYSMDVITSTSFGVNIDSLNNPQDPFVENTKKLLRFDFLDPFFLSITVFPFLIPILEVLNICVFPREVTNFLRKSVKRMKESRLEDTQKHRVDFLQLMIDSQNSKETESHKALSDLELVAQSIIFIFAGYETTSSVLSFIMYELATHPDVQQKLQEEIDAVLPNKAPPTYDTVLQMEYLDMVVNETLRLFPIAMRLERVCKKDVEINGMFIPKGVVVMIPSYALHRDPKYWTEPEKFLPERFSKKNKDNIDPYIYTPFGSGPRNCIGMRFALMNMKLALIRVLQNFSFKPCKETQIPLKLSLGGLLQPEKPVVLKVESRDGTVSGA

Molecular target: T1, CYP3A4 (Homo sapiens, UniProt P08684)
T1 construct: P2A self-cleaving peptide (linker to POR in the polycistronic cassette) (C); expressed in transfected cells
Experiment: CYP3A4 inhibition in CYPs–UGT1A1 KI-HepG2 cells (1′-hydroxy midazolam formation, HPLC)
Assay type: in vitro ADME
Details: 10 μM inhibitor, 10 μM midazolam, p < 0.01
Description: The cells were cultured on 48-well plates, then washed with pH 7.4 HBSS containing 10 mM HEPES and 25 mM glucose. […] After preincubation, HBSS containing 10 μM phenacetin, 10 μM diclofenac, 50 μM S-mephenytoin, 1 μM bufuralol, 10 μM midazolam, 10 μM 7′-hydroxy coumarin, or 1 μM propranolol was added, and the cells were incubated at 37 ℃ for 360 min. […] The samples were collected from the supernatant, then immediately mixed with the same volume of acetonitrile. The mixed solutions were centrifuged for 5 min at 15,000× g. […] HPLC analysis was performed using a LO-20AD SPD + RF (DGU-20A, LC-20AD, RF-20A xs, SIL-20AC, CBM-20A, SPD-20A, CTO-20AC; Shimadzu). The concentrations of each metabolite were calculated according to the respective standard followed by normalization to the protein content per well.
A value of p < 0.05 was considered statistically significant. Using the SigmaPlot v.
The quantity of metabolites (4′-hydroxy diclofenac, 1′-hydroxy bufuralol, and 1′-hydroxy midazolam; these compounds are metabolites for CYP2C9, 2D6, and 3A4, respectively) were measured by HPLC. Data represent the means ± SD (n = 3, technical replicates). Statistical analyses were performed using the unpaired two-tailed Student’s t test (** p < 0.01). […]

With `CCC(C)n1ncn(-c2ccc(N3CCN(c4ccc(OCC5COC(Cn6cncn6)(c6ccc(Cl)cc6Cl)O5)cc4)CC3)cc2)c1=O` (stereo not shown) [itraconazole] the “CYP3A4 activity in the presence of the inhibitor” value was “significantly decreased”.
